Results from patent US11834458B2, “Anti-cancer nuclear hormone receptor-targeting compounds” (Nuvation Bio Inc., priority 2021, dated 2023).

Chains of the proteins cited; added tags and fusions are not shown.
UniProt P10275, whole entry: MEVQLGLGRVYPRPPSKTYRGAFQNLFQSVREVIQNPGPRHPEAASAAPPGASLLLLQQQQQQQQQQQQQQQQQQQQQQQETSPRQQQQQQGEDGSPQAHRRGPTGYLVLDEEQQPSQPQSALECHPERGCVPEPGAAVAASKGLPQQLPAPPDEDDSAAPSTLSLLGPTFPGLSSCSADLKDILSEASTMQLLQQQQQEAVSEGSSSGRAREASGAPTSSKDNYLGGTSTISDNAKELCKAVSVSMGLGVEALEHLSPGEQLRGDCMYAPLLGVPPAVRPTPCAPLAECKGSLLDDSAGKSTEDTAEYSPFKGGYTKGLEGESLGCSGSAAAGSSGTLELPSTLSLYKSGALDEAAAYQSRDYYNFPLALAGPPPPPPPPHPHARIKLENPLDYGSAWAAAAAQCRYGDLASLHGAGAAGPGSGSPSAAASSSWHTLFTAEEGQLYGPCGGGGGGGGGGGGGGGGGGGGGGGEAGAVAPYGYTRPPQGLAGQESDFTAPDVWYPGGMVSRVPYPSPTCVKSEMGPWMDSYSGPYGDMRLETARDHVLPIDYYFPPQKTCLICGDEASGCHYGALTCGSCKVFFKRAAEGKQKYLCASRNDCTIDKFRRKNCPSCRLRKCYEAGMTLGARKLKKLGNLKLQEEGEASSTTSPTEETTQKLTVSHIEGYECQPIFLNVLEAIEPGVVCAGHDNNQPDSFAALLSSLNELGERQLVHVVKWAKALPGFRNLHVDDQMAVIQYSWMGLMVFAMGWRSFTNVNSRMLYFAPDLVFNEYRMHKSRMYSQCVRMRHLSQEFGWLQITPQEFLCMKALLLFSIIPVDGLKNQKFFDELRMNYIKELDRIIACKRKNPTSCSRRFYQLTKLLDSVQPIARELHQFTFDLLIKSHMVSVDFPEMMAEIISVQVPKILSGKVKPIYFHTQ
UniProt P10275, whole entry T878A: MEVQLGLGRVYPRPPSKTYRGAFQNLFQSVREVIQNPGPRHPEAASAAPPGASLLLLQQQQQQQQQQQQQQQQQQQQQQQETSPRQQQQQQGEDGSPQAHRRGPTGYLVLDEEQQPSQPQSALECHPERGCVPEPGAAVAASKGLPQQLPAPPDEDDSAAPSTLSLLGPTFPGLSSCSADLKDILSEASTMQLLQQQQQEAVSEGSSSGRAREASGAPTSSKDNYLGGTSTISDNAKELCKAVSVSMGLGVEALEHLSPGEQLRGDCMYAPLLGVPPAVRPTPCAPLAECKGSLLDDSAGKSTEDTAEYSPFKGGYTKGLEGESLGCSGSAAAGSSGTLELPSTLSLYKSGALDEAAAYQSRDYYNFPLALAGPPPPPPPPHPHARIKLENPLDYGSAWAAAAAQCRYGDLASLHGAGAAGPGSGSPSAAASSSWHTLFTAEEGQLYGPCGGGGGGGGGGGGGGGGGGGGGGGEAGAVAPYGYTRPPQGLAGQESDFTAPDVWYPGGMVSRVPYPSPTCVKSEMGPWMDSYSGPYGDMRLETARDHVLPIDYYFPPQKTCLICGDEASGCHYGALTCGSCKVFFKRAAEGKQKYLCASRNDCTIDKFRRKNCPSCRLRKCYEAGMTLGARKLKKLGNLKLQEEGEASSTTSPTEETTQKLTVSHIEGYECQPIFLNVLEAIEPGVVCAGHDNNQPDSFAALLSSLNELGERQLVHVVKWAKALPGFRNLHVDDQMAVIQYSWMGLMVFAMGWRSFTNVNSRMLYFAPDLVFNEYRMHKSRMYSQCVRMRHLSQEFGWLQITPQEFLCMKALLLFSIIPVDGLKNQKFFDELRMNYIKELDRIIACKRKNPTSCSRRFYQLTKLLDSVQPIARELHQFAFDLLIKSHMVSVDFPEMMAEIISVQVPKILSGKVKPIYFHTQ

Experiments:
IEC6 cells = assay: Cell viability assay, IEC6; conditions: read-out: IEC-6 (IC50); IEC-6 cells, 6 days, CellTiterGlo; tested form: formate
Description: (§1) Cell viability assay: LNCap, 22Rv1, MCF7, MDAMB361, T47D, and IEC6 cells are seeded at a density of 500-2000 cells/well in 96 well plates, and a ‘T0’ (timepoint 0) was included along with the assay plate. The plates are then incubated at 37° C., 5% CO2 in a cell culture incubator overnight. On the next day, the ‘T0’ plate was assayed using CellTiterGlo (Promega, Inc) according to the manufacturer's instructions. The appropriate compounds are diluted in DMSO and added to the assay plate (final DMSO concentration of 0.1-0.2%) on the next day. The assay plates are incubated for 6 days at 37° C., 5% CO2. After the incubation period, the plates are assayed using CellTiterGlo (Promega, Inc) according to the manufacturer's instructions and luminescence was read on the EnVision plate reader. Inhibition of the tested compounds was determined by the following formula: Inhibition rate (%)=(1−(RLU compound−RLU day0)/(RLU control−RLU day0))*100%. GraphPadPrism was used to analyze the data and determine GI50/IC50 values.

[1] = target: full-length androgen receptor (Homo sapiens (Human), UniProt P10275); assay: AR antagonism assay; type: cell-based; conditions: read-out: AR antagonism; HEK293 cells stably expressing full-length androgen receptor, testosterone 1 nM, 20 h; tested form: formate
Description: AR antagonism assay: To evaluate AR antagonist activity, test compound was added to the assay plate (top dose 10 μM, 3 fold serial dilution, 10 point dose response). HEK293 cells stably expressing the full-length androgen receptor were seeded at a density of 20,000 cells/well in the assay plate. The assay plate was then incubated at room temperature for 10 minutes and at 37° C., 5% CO2 for 20 minutes. Testosterone was added to the assay plate at 1 nM final concentration and the assay plate incubated at 37° C., 5% CO2 for 20 h. After the incubation period, Steady-glo was added to the assay plate and mixed at room temperature for 20 minutes on an orbital shaker, before reading out on the EnVision plate reader.

LNCap cells = assay: Cell viability assay, LNCap; conditions: read-out: LNCap (GI50), 6 days, CellTiterGlo, tested form: formate
Description: as §1

22Rv1 cells = assay: Cell viability assay, 22Rv1; conditions: read-out: 22RV1 (GI50), 6 days, CellTiterGlo, tested form: formate
Description: as §1

AR = AR (Homo sapiens (Human), UniProt P10275, T878A); assay: AR binding assay; conditions: read-out: AR binding; cytosol from LnCaP cells, 3H-R1881 1 nM, 4° C. 24 hrs; tested form: formate
Description: AR binding assay: To assess AR binding, test compound (top dose 10 μM, 4 fold serial dilution, 8 point dose response) and control (progesterone) were transferred to the assay plate. Cytosol from LnCaP cells was added to the plate, followed by addition of radiolabeled ^3H-R1881 at a final concentration of 1 nM. The plate was sealed, and the reaction was incubated at 300 rpm at 4° C. for 24 hrs. Radioligand absorption buffer (10 mM Tris-HCl, pH 7.4; 1.5 mM EDTA; 1 mM DTT; 0.25% charcoal; 0.0025% dextran) was then added to the plate, mixed, and incubated at 4° C. for 15 minutes. The plate was then centrifuged at 3000 rpm for 30 minutes at 4° C. The supernatant was transferred to the scint-tube and Tri-carb was used for scintillation counting. The data was analyzed using GraphPadPrism v5.0 and binding IC50 was determined as the concentration where 50% inhibition of radioligand binding was observed.

CC[C@@]1(O)C(=O)OCc2c1cc1n(c2=O)Cc2cc3c(CN(C)C)c(OC(=O)N4CCN(CCCCCCNC(=O)c5ccc(N6C(=S)N(c7ccc(C#N)c(C(F)(F)F)c7)C(=O)C6(C)C)cc5F)CC4)ccc3nc2-1
10 to 500 nM: IC50 (IEC6 cells) | IC50 [1] | GI50 (LNCap cells) | GI50 (22Rv1 cells) | IC50 (AR)
